# Reference: patent US20120021972A1 (CADILA HEALTHCARE, published 2012)
# Molecular target: human GLP-1 receptor (human) (UniProt P43220)
# Experiment: cell-based or functional assay
substance,measurement,value
Exendin-4 (from UniProt P26349) (peptide),"EC50, cAMP, H GLP-1 R assay",0.56 nM
same,"cAMP release, % activity, 1 nM",88%
same,"cAMP release, % activity, 10 nM",95%
same,"cAMP release, % activity, 100 nM",99%
same,"cAMP release, % activity, 1 µM",99%
same,"cAMP release, % activity, 10 µM",99%
